Literature values, collected in patent US6806377B1, “Preparation of metallocenes carrying a cyclopentadiene comprising a basic donor group” (The University of Leeds, priority 1999, dated 2004).

Details: background statement on the known anti-tumour drug; cited from earlier work

titanocene dichloride
solubility: low solubility
